The values that follow come from PubChem BioAssay AID602405 (Broad Institute, 2012).

The structures appear in SMILES notation. Only a part is listed here, and it is no random draw. Some tests of the compounds listed are not included; inactive here does not mean inactive elsewhere. The source made the active and inactive calls. Rule as the data show it: active = inhibition above about 16% (passing the limit was not always enough); inconclusive = no clear call, values can overlap the other calls; inactive = below that.

The assay has as its system UDP-N-acetylbacillosamine N-acetyltransferase PglD (Campylobacter jejuni). The assay is described as follows: C. jejuni PglD acetyltransferase inhibitors, primary screen, biochemical, DTNB colorimetric, single point (AID 602405). The note with it: purified PglD enzyme, DTNB colorimetric CoA detection; at 12.5 µM; hits give high values.
The inhibition is the change of the read-out against control, counted positive when it falls. For `COc1ccc(Br)c(C(=O)NCC2(N3CCCCC3)CCCCC2)c1`, the inhibition is inactive: 6.88%.

Regarding `C=C(C)C#CC(O)(C(=O)OC1CCN(C)CC1)c1ccccc1` (centres undefined), the inhibition was inactive: 1.31%.

On to `CN(C)c1cccc(C(=O)NCC2(N(C)C)CCCCC2)c1`, for which the inhibition was inactive: -9.9%.

With `O=C(OCCN1CCCC1)C(O)(c1ccccc1)c1ccccc1`, the inhibition is inactive: 3.48%.

As to `CC(C)Oc1ccc(C(=O)NCC2(N(C)C)CCCCC2)cc1`, the inhibition was inactive: 4.81%.

On to `CN(C)C1(CNC(=O)c2ccc(Br)cc2)CCCCC1`, for which the inhibition is inactive: 1.87%.

Consider `COc1cc(C(=O)NCC2(N(C)C)CCCCC2)c([N+](=O)[O-])cc1OC`, for which the inhibition is inactive: -6.23%.

`COc1ccc(Cl)cc1C(=O)NCC1(N(C)C)CCCCC1`: the inhibition is inactive: 2.63%.

On to `O=C(NCC1(N2CCCCC2)CCCCC1)c1cccc(Cl)c1`, for which the inhibition was inactive: 2.55%.

`CN(C)c1ccc(C(=O)NCC2(N(C)C)CCCCC2)cc1`: the inhibition was inactive: 3.12%.

In the case of `O=C(NCC1(N2CCCCC2)CCCCC1)c1cc(F)c(F)cc1Cl`, the inhibition was inactive: 0.113%.

For the compound `O=C(NCC1(N2CCCCC2)CCCCC1)c1cccc(Br)c1`, the inhibition was inactive: 0.035%.

Regarding `Cc1cc(C(=O)NCC2(N3CCCCC3)CCCCC2)ccc1[N+](=O)[O-]`, the inhibition was inactive: -1.67%.

Regarding `COc1ccc(C(=O)NCC2(N(C)C)CCCCC2)cc1`, the inhibition was inactive: 6.08%.

On to `CN1[C@@H]2CC[C@H]1CC(OC(=O)C(O)(c1ccccc1)c1ccccc1)C2` (some centres undefined), for which the inhibition is inactive: 3.49%.

Take `CC(C)N1C(=O)CC2(CCN(CCOC(=O)C(O)(c3ccccc3)c3ccccc3)CC2)C1=O`: the inhibition was inactive: 2.49%.

Consider `COc1cc(SC)ccc1C(=O)NCC1(N(C)C)CCCCC1`, for which the inhibition is inactive: -5.67%.

Take `CCN(CC)CC(C)C(C)OC(=O)C(O)(c1ccccc1)c1ccccc1` (centres undefined): the inhibition was inactive: 1.27%.

With `Cc1ccc(C(=O)NCC2(N3CCCCC3)CCCCC2)cc1`, the inhibition is inactive: -0.127%.
